For experiment [1], the target named is JAK2 (Homo sapiens (Human), UniProt O60674). The experiment is described as follows: Jak biochemical HTRF assay, JAK2. The conditions noted are these: recombinant GST-tagged catalytic domain. On the procedure:
(§1) Jak Biochemical HTRF Assay Protocol
(§2) The ability of compounds to inhibit the activity of JAK1, JAK2, JAK3, and Tyk2 was measured using a recombinant purified GST-tagged catalytic domain for each enzyme (Invitrogen JAK1 #M4290, JAK2 #M4290, JAK3 #M4290, Tyk2 #M4290) in an HTRF format biochemical assay. […] The basic assay protocol is as follows: First, 250 nL of diluted compounds in DMSO were dispensed into the wells of a dry 384-well Black plate (Greiner #781076) using a Labcyte Echo 555 acoustic dispenser. Subsequent reagent additions employed an Agilent Bravo. […] After equilibration, 2 μL of 10×ATP in 1× assay buffer was added to initiate the kinase reaction and the plates were shaken and then incubated at room temperature for 120 minutes. […] Plates were shaken and centrifuged and then incubated 60 minutes at room temperature and then read on a Perkin Elmer Envision (λex=337 nm, λem=665 and 615 nm, TRF delay time=20 μs). HTRF signal=10,000*665 nm reading/615 nm reading. After normalization to untreated controls, the percent inhibition of the HTRF signal at each compound concentration was calculated. The plot of percent inhibition versus the log of compound concentration was fit with a 4-parameter dose response equation to calculate IC50 values.
(§3) Final Reaction Conditions were:
(§4) Examples of the instant invention were evaluated in JAK1 and JAK2 in vitro binding assays.

By UniProt entry, the sequences of proteins in these tests, tags left out. Residues count along the entry.
UniProt O60674, 849-1124: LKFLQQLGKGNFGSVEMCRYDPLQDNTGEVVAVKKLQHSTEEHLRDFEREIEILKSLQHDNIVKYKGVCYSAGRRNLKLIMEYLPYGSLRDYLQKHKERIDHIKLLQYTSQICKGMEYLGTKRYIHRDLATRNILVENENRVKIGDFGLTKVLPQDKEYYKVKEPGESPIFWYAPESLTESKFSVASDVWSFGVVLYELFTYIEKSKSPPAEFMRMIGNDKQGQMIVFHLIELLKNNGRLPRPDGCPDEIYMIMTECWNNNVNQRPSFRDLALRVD
UniProt P23458, 875-1153: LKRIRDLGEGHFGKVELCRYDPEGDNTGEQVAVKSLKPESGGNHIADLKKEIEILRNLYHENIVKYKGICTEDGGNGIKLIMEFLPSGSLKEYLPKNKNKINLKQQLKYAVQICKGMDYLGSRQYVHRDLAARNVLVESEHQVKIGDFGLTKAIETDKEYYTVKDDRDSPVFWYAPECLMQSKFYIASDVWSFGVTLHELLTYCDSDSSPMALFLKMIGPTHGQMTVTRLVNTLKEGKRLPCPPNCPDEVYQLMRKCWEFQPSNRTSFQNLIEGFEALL

In experiment [2] the target is JAK1 (Homo sapiens (Human), UniProt P23458). The experiment is described as follows: Jak biochemical HTRF assay, JAK1. The conditions noted are these: recombinant GST-tagged catalytic domain. Here is the method: as §1, §2, §3, §4
A general note: TR-FRET usually uses a lanthanide donor and a delayed reading to cut background.

As for `CS(=O)(=O)c1ccc(Nc2nn([C@H]3CCC4(CC4)C[C@@H]3C#N)c3cc[nH]c(=O)c23)cc1` (racemic) [Example 14-1, Racemic-trans-6-(3-((4-(methylsulfonyl)phenyl)amino)-4-oxo-4,5-dihydro-1H-pyrazolo[4,3-c]pyridin-1-yl)spiro[2.5]octane-5-carbonitrile], the values for the IC50 in experiment [1] and in experiment [2] were 4.4 nM and 1.1 nM, respectively. Consider `CN(C)S(=O)(=O)c1ccc(Nc2nn([C@H]3CCC4(CC4)C[C@@H]3C#N)c3cc[nH]c(=O)c23)cc1` (racemic) [Example 14-2, Racemic-trans-4-((1-(5-cyanospiro[2.5]octan-6-yl)-4-oxo-4,5-dihydro-1H-pyrazolo[4,3-c]pyridin-3-yl)amino)-N,N-dimethylbenzenesulfonamide], for which the half-maximal inhibitory concentration (IC50) (usually the point on the concentration scale where inhibition reaches its midpoint) in experiment [1] is 2.2 nM; in experiment [2], 0.8 nM.

On to `CC(C)(C)OC(=O)[C@H]1CC[C@@](O)(c2ccc(Nc3nn([C@H]4CCCC[C@@H]4C#N)c4cc[nH]c(=O)c34)cc2)CC1` (racemic) [Example 15-39, (1S,4S and 1R,4R)-tert-butyl 4-(4-((1-((1S,2S)-2-cyanocyclohexyl)-4-oxo-4,5-dihydro-1H-pyrazolo[4,3-c]pyridin-3-yl)amino)phenyl)-4-hydroxycyclohexanecarboxylate], for which the half-inhibitory concentration (IC50) in experiment [1] amounted to 2.1 nM; in experiment [2], 0.34 nM. For the compound `CC(C)(C)OC(=O)[C@H]1CC[C@](O)(c2ccc(Nc3nn([C@H]4CCCC[C@@H]4C#N)c4cc[nH]c(=O)c34)cc2)CC1` (racemic) [Example 15-40, (1S,4R and 1R,4S)-tert-butyl 4-(4-((1-((1S,2S)-2-cyanocyclohexyl)-4-oxo-4,5-dihydro-1H-pyrazolo[4,3-c]pyridin-3-yl)amino)phenyl)-4-hydroxycyclohexanecarboxylate], the IC50 turned out to be 1.5 nM in experiment [1] and 0.77 nM in experiment [2]. As to `CS(=N)(=O)c1ccc(Nc2nn(C3CCCC[C@@H]3C#N)c3cc[nH]c(=O)c23)cc1` (single isomer, unassigned) [Example 3-110, (1S,2S)-2-(3-{[4-((S or R)-S-methylsulfonimidoyl)phenyl]amino}-4-oxo-4,5-dihydro-1H-pyrazolo[4,3-c]pyridin-1-yl)cyclohexanecarbonitrile], the IC50 in experiment [1] was 1.1 nM; in experiment [2] it was 0.42 nM. `CS(=N)(=O)c1ccc(Nc2nn(C3CCCC[C@@H]3C#N)c3cc[nH]c(=O)c23)cc1` (single isomer, unassigned) [Example 3-111, (1S,2S)-2-(3-{[4-((S or R)-S-methylsulfonimidoyl)phenyl]amino}-4-oxo-4,5-dihydro-1H-pyrazolo[4,3-c]pyridin-1-yl)cyclohexanecarbonitrile]: the IC50 in experiment [1] is 0.88 nM; in experiment [2], 0.23 nM. `CCOC(=O)C(C)(C)C(O)(c1ccc(Nc2nn([C@H]3CCCC[C@@H]3C#N)c3cc[nH]c(=O)c23)cc1)C(F)(F)F` (single isomer, unassigned) [Example 3-117, (R or S) Ethyl 3-(4-((1-((1S,2S)-2-cyanocyclohexyl)-4-oxo-4,5-dihydro-1H-pyrazolo[4,3-c]pyridin-3-yl)amino)phenyl)-4,4,4-trifluoro-3-hydroxy-2,2-dimethylbutanoate]: the 50% inhibitory concentration (IC50) in experiment [1] was determined as 6 nM; in experiment [2], 1.7 nM. On to `CCOC(=O)C(C)(C)C(O)(c1ccc(Nc2nn([C@H]3CCCC[C@@H]3C#N)c3cc[nH]c(=O)c23)cc1)C(F)(F)F` (single isomer, unassigned) [Example 3-118, (R or S) Ethyl 3-(4-((1-((1S,2S)-2-cyanocyclohexyl)-4-oxo-4,5-dihydro-1H-pyrazolo[4,3-c]pyridin-3-yl)amino)phenyl)-4,4,4-trifluoro-3-hydroxy-2,2-dimethylbutanoate], for which the results for the IC50 in experiment [1] and in experiment [2] were 0.88 nM and 0.5 nM, respectively. `N#C[C@H]1CCCCC[C@@H]1n1nc(Nc2ccc3c(c2)CN(C2CCCC2)C3=O)c2c(=O)[nH]ccc21` (single isomer, unassigned) [Example 15-50, (1S,2S or 1R,2R)-2-{3-[(2-cyclopentyl-1-oxo-2,3-dihydro-1H-isoindol-5-yl)amino]-4-oxo-4,5-dihydro-1H-pyrazolo[4,3-c]pyridin-1-yl}cycloheptanecarbonitrile]: the half-inhibitory concentration (IC50) in experiment [2] was found to be 6.6 nM. Regarding `N#C[C@@H]1CCCCC[C@H]1n1nc(Nc2ccc3c(c2)CN(C2CCCC2)C3=O)c2c(=O)[nH]ccc21` (single isomer, unassigned) [Example 15-52, (1R,2R or 1S,2S)-2-{3-[(2-cyclopentyl-1-oxo-2,3-dihydro-1H-isoindol-5-yl)amino]-4-oxo-4,5-dihydro-1H-pyrazolo[4,3-c]pyridin-1-yl}cycloheptanecarbonitrile], in experiment [2], the 50% inhibitory concentration (IC50) is 0.053 nM. As for `CC(C)C(c1ccc(Nc2nn([C@H]3CCCC[C@@H]3C#N)c3cc[nH]c(=O)c23)cc1)n1cc(C(C)(C)C)nn1` (single isomer, unassigned) [Example 15-55, (1S,2S)-2-[3-({4-[(1S or 1R)-1-(4-tert-butyl-1H-1,2,3-triazol-1-yl)-2-methylpropyl]phenyl}amino)-4-oxo-4,5-dihydro-1H-pyrazolo[4,3-c]pyridin-1-yl]cyclohexanecarbonitrile], the IC50 in experiment [2] turned out to be 0.76 nM. On the same count and under the same terms, then `CC(C)C(c1ccc(Nc2nn([C@H]3CCCC[C@@H]3C#N)c3cc[nH]c(=O)c23)cc1)n1cc(C(C)(C)C)nn1` (single isomer, unassigned) [Example 15-56, (1S,2S)-2-[3-({4-[(1R or 1S)-1-(4-tert-butyl-1H-1,2,3-triazol-1-yl)-2-methylpropyl]phenyl}amino)-4-oxo-4,5-dihydro-1H-pyrazolo[4,3-c]pyridin-1-yl]cyclohexanecarbonitrile], with 0.81 nM; and `N#C[C@H]1CCCC[C@@H]1n1nc(Nc2ccc(C3(C(F)(F)F)CCCCN3)cc2)c2c(=O)[nH]ccc21` (single isomer, unassigned) [Example 15-74, (1S,2S)-2-[4-oxo-3-({4-[(2S or 2R)-2-(trifluoromethyl)piperidin-2-yl]phenyl}amino)-4,5-dihydro-1H-pyrazolo[4,3-c]pyridin-1-yl]cyclohexanecarbonitrile], with 0.1 nM. Still for that read-out and setting: under `N#C[C@H]1CCCC[C@@H]1n1nc(Nc2ccc(C3(C(F)(F)F)CCCCN3)cc2)c2c(=O)[nH]ccc21` (single isomer, unassigned) [Example 15-75, (1S,2S)-2-[4-oxo-3-({4-[(2R or 2S)-2-(trifluoromethyl)piperidin-2-yl]phenyl}amino)-4,5-dihydro-1H-pyrazolo[4,3-c]pyridin-1-yl]cyclohexanecarbonitrile] stands 0.12 nM. With `CC(C)(C)S(=O)(=O)c1ccc(Nc2nn([C@H]3CC(F)(F)C[C@H]3C#N)c3cc[nH]c(=O)c23)cc1` (single isomer, unassigned) [Example 22-1, (1R,2S or 1S,2R)-2-(3-((4-(tert-Butylsulfonyl)phenyl)amino)-4-oxo-4,5-dihydro-1H-pyrazolo[4,3-c]pyridin-1-yl)-4,4-difluorocyclopentanecarbonitrile], the half-maximal inhibitory concentration (IC50) in experiment [2] was found to be 1.7 nM. As to `CC(C)(C)S(=O)(=O)c1ccc(Nc2nn([C@@H]3CC(F)(F)C[C@@H]3C#N)c3cc[nH]c(=O)c23)cc1` (single isomer, unassigned) [Example 22-2, (1S,2R or 1R,2S)-2-(3-((4-(tert-Butylsulfonyl)phenyl)amino)-4-oxo-4,5-dihydro-1H-pyrazolo[4,3-c]pyridin-1-yl)-4,4-difluorocyclopentanecarbonitrile], the IC50 in experiment [2] was 16 nM.

On to `N#C[C@H]1CCCC[C@@H]1n1nc(Nc2ccc(C(O)C(F)F)cc2)c2c(=O)[nH]ccc21` (stereo partly drawn) [Example 3-70, (1S,2S)-2-(3-{[4-(2,2-difluoro-1-hydroxyethyl)phenyl]amino}-4-oxo-4,5-dihydro-1H-pyrazolo[4,3-c]pyridin-1-yl)cyclohexanecarbonitrile], for which, in experiment [2], the concentration for half-maximal inhibition (IC50) was 0.14 nM. With `CC(O)(CCO)c1cc(Nc2nn([C@H]3CCCC[C@@H]3C#N)c3cc[nH]c(=O)c23)ccc1S(C)(=O)=O` (stereo partly drawn) [Example 3-86, (1S,2S)-2-(3-{[3-(1,3-dihydroxy-1-methylpropyl)-4-(methylsulfonyl)phenyl]amino}-4-oxo-4,5-dihydro-1H-pyrazolo[4,3-c]pyridin-1-yl)cyclohexanecarbonitrile], the half-maximal inhibitory concentration (IC50) in experiment [2] was found to be 2.8 nM. In the case of `N#C[C@H]1CCCC[C@@H]1n1nc(Nc2ccc3c(c2)CCNC3)c2c(=O)[nH]ccc21` [Example 3-156, (1S,2S)-2-[4-oxo-3-(1,2,3,4-tetrahydroisoquinolin-6-ylamino)-4,5-dihydro-1H-pyrazolo[4,3-c]pyridin-1-yl]cyclohexanecarbonitrile], the concentration for half-maximal inhibition (IC50) in experiment [2] worked out at 0.82 nM. With `C[C@H](N[C@H]1CC[C@H](n2nc(Nc3ccc(Cl)c(F)c3)c3c(=O)[nH]ccc32)[C@@H](C#N)C1)C1CC1` [Example 5-6, (1S,2S,5S)-2-(3-((4-chloro-3-fluorophenyl)amino)-4-oxo-4,5-dihydro-1H-pyrazolo[4,3-c]pyridin-1-yl)-5-(((S)-1-cyclopropylethyl)amino)cyclohexanecarbonitrile], in experiment [2], the IC50 was found to be 1.3 nM. On to `N#C[C@H]1C[C@@H](N2CCC2)CC[C@@H]1n1nc(Nc2ccc(Cl)cc2)c2c(=O)[nH]ccc21` [Example 5-18, (1S,2S,5S)-5-(azetidin-1-yl)-2-(3-((4-chlorophenyl)amino)-4-oxo-4,5-dihydro-1H-pyrazolo[4,3-c]pyridin-1-yl)cyclohexanecarbonitrile], for which the IC50 in experiment [2] stood at 0.54 nM.

Values taken from patent US9725445B2, “Cycloalkyl nitrile pyrazolo pyridones as Janus kinase inhibitors” (Merck Sharp & Dohme Corp., priority 2013, dated 2017).
